Paper PMC10141516, “Development of Clinically Optimized Sitagliptin and Dapagliflozin Complex Tablets: Pre-Formulation, Formulation, and Human Bioequivalence Studies” (Pharmaceutics, 2023)

Experiment: Stability study of the APIs in pH buffers (total impurity by HPLC)
Format: physicochemical
Conditions: pH 5.0 buffer; 40 ± 2 °C/75 ± 5% RH; 3 Days
Procedure: The column used was the Gemini C18 column (5.0 μm, 250 mm). Mobile phase A of the impurity study was prepared with KH2PO4 buffer (v/v, solution adjusted to pH 6.0 with 1 M KOH): acetonitrile: methanol = 85: 10: 5 (v/v/v), and mobile phase B was prepared with 90% acetonitrile. The mobile phase was filtered through a 0.4 μm polypropylene membrane filter and degassed via sonication. The diluted solution was prepared with KH2PO4 buffer (v/v, solution adjusted to pH 6.0 with 1 M KOH) and acetonitrile at a ratio of 7:3 (v/v). The wavelength, flow rate, and injection volume were set to 220 nm, 1.0 mL/min, and 20 μL, respectively. The column and sample thermostats were set to 35 °C and 5 °C, respectively. In the case of the impurity study, the analysis was performed by changing the composition of the mobile phase for 80 min using a gradient elution method for 80 min.
[…] […] We performed a calibration test, and the sample was diluted with a diluted solution and prepared at a concentration of 0.05–1 mg/mL.

Total Impurity: 1.36%
SMILES: CCOc1ccc(Cc2cc([C@@H]3O[C@H](CO)[C@@H](O)[C@H](O)[C@H]3O)ccc2Cl)cc1 [Dapagliflozin, (1S)-1,5-Anhydro-1-C-[4-chloro-3-[(4-ethoxyphenyl)methyl]phenyl]-D-glucitol (S)-propane-1,2-diol (1:1) monohydrate]
